In publication PMC11295983 (ESMO Open, 2024):

System: patients with advanced solid tumor malignancies
Assay: Safety and tolerability
Format: in vivo, human
Conditions: Total (all pemigatinib doses)
Outline: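 Patients are ≥18 years with solid tumors that progressed after ≥1 prior line. They self-administer oral pemigatinib 9, 13.5 or 20 mg q.d. on 21-day cycles, continuous or intermittent, combined with chemotherapy, trastuzumab or anti-PD-1 antibody until progression or toxicity. Interruption and dose adjustment are allowed. AE frequency, duration and severity are summarized descriptively for patients receiving ≥1 dose.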

With pemigatinib + retifanlimab [Pemi/reti] the “Dose interruptions because of TEAEs, patients” value was 88.9%.
